From patent US10946023B2, “Therapeutically active compounds and their methods of use” (Agios Pharmaceuticals, Inc., priority 2013, dated 2021)

Test system: HT1080 cells
Assay: HT1080 cellular assay, 2-HG by LC-MS (IDH1 R132C)
Type: cell-based
Conditions: Homo sapiens, HT-1080
Protocol: The following describes the experimental procedures that can be used to obtain data on column 5 of Table 4.
Cells (HT1080 or U87MG) are grown in T125 flasks in DMEM containing 10% FBS, 1× penicillin/streptomycin and 500 ug/mL G418 (present in U87MG cells only). They are harvested by trypsin and seeded into 96 well white bottom plates at a density of 5000 cell/well in 100 ul/well in DMEM with 10% FBS. No cells are placed in columns 1 and 12. Cells are incubated overnight at 37° C. in 5% CO2. The next day test compounds are made up at 2× the final concentration and 100 ul are added to each cell well. The final concentration of DMSO is 0.2% and the DMSO control wells are plated in row G. The plates are then placed in the incubator for 48 hours. At 48 hours, 100 ul of media is removed from each well and analyzed by LC-MS for 2-HG concentrations. The cell plate is placed back in the incubator for another 24 hours. At 72 hours post compound addition, 10 mL/plate of Promega Cell Titer Glo reagent is thawed and mixed. The cell plate is removed from the incubator and allowed to equilibrate to room temperature. Then 100 ul of Promega Cell Titer Glo reagent is added to each well of media. The cell plate is then placed on an orbital shaker for 10 minutes and then allowed to sit at room temperature for 20 minutes. The plate is then read for luminescence with an integration time of 500 ms. […]

How did the IC50 turn out when `CC(Nc1cc(NC(C)C2CC2)nc(-c2cccc(C(F)(F)F)n2)n1)C1CC1` (stereo not shown) [Compound 420] was run?
Its IC50 is 100 to 1000 nM.
